Legend:
5-HT1A receptor = 5-HT1A receptor (Rattus norvegicus, UniProt P19327); type: binding; parameters: 47: 529-540 (1986); from tissue; host or cells: brain tissue, inferred from the cited method (rat frontal cortex); settings: Table 5
Procedure: Further sigma receptor binding assays against [^3 H]DTG and 5HT-1A binding assays were conducted according to the procedure outlined in the previous examples.

Protein sequences, listed by entry. Tags and fused reporters are not part of them.
UniProt P19327, whole entry: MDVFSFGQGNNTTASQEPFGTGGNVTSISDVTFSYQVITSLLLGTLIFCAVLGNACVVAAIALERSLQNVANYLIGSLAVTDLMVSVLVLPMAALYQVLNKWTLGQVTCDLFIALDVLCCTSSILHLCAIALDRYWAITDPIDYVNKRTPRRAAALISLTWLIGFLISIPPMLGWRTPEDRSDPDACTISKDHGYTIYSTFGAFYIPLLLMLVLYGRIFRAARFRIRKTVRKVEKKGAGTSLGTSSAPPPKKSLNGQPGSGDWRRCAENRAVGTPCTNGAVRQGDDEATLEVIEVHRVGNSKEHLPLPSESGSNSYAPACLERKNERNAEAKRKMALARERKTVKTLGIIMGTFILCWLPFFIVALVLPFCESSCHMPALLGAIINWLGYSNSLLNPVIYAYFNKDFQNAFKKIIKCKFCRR

sigma receptor = assay: Sigma receptor binding, [^3 H]DTG, brain membranes (both sigma-1 and sigma-2 sites); parameters: species or system guinea pig; settings: Table 6
Procedure: Sigma receptor binding assays using guinea pig brain membrane homogenates and the radioligand [^3 H]DTG were conducted as described by Weber et al.. […] Briefly, frozen whole guinea-pig brains (Biotrol, Indianapolis, Ind.) were homogenized in 10 volumes (w/v) of ice-cold 320 mM sucrose using a Brinkman polytron. The homogenate was centrifuged at 1,000× g for 20 minutes at 4° C. The supernatant was centrifuged at 20,000× g for 20 minutes at 4° C. The resulting pellet was resuspended in 10 initial volumes of 50 mM Tris/HCl buffer at pH 7.4 and centrifuged at 20,000× g for 20 minutes at 4° C. The resulting pellet was resuspended in 5 initial volumes ice-cold 50 mM Tris/Hcl […], and the final volume was adjusted to yield a protein concentration of 3 mg/ml. […]
The protein concentration in the 1-ml final incubation volume was 800 ug/ml, corresponding to 32 mg of brain tissue (original wet weight) and to a tissue concentration within the linear range for specific binding. […] Each filter was suspended in 10 ml Cytoscint (ICI), and radioactivity was measured by liquid scintillation spectrometry at a counting efficiency of approximately 50%. IC50 values were determined by non-linear regression analyis. […]
Radioligand Binding. […] Radioactivity was measured by liquid scintillation spectrometry at a counting efficiency of 50%.

Row | SMILES | Ratio 5-HT1A /σ (5-HT1A receptor) | IC50 (sigma receptor)
1 | CN[C@H](C)Cc1ccccc1 [Compound 3] | .20 | –
2 | CCN(CC)CCOC(=O)C(O)(c1ccccc1)c1ccccc1 [Compound 185] | – | 1740 nM

— patent US6057371A, “Sigma receptor ligands and the use thereof” (Virginia Commonwealth University, priority 1992, dated 2000)
